Experimental data: PubChem BioAssay AID588855 (National Center for Advancing Translational Sciences (NCATS), 2011)
The entries are a selection whose mix differs from that of the whole data set. Results filed as inconclusive are left out. Entries that show only a call come without a potency. Activity calls are given as the source filed them. Calls come from the whole dose curve; as a rule, active = well fitted inhibition curve with a large enough effect; inconclusive = small, poorly fitted or top-dose-only effect; inactive = no such curve, though single readings can be large or run the other way.

assay: qHTS for Inhibitors of TGF-b; details: HepG2 CAGA-GFP TGF-b/SMAD3 reporter, GFP fluorescence, 18 h, TGF-beta stimulated, 500 pg/mL final; series mostly up to 46.1 µM; note: nearly all actives have a fitted effect of over 65% in size
Potency is the fitted concentration of half-maximal effect.

SMILES | Potency
O=P1(Nc2ccccn2)COc2ccccc2OC1 | inactive
CCOP(=O)(NC(=NC(C)c1ccccc1)NC(C)c1ccccc1)OCC (configuration not stated) | inactive
CN(CCCl)Cc1cc(Cl)c(NC2=NCCN2)c(Cl)c1 | inactive
CCOP(=O)(Nc1ccc(C)cn1)OCC | inactive
Clc1n[nH]nc1-c1nn[nH][15n]1 | inactive
O=P1(N(CCCl)CCCl)NCCC(C(F)(F)F)O1 (configuration not stated) | inactive
CC(C)(C)C(=O)NC(Sc1ncccn1)C(Cl)(Cl)Cl (configuration not stated) | inactive
COc1ccccc1CNC(=O)COC(=O)C(O)(c1ccccc1)c1ccccc1 | inactive
CN(C(=O)Cc1ccc(Cl)c(Cl)c1)[C@@H]1CCCC[C@H]1N1CCCC1 | inactive
CC(C)/C=N\N=C(\N)N[N+](=O)[O-] | inactive
CC1(CBr)Cn2c(nc3ccccc3c2=O)S1 (configuration not stated) | inactive
Cc1nn(-c2ccccc2)c2c1P(=O)(N1CCOCC1)N(C)C(c1ccccc1)=N2 (configuration not stated) | inactive
CC1CCC(C(C)C)C(OP(=O)(Nc2ccccn2)c2ccccc2)C1 (configuration not stated) | active: 17.8 µM
CN(C)C1(CNC(=O)c2ccc(S(C)(=O)=O)cc2)CCCCC1 | inactive
O=C(/C=C/c1ccccc1)OC1CN2CCC1CC2 (configuration not stated) | inactive
CCCC1OP(=O)(Nc2ccccc2)OCC1CC (configuration not stated) | inactive
Cc1ccc(S(=O)(=O)N(CCCN)CCCc2c(C)nc(N)[nH]c2=O)cc1 | inactive
O=P1(Nc2ncccn2)COc2ccccc2OC1 | inactive
Nc1cccc([As](=O)(O)c2ccccc2)c1 | inactive
NS(=O)(=O)c1cccc(NC(=O)COC(=O)C(O)(c2ccccc2)c2ccccc2)c1 | inactive
O=P1(Nc2ccc(Br)cn2)COc2ccccc2OC1 | inactive
O=[As](O)(c1cccs1)c1cccs1 | inactive
Cc1ccc(OCC(=O)OC2CN3CCC2CC3)cc1 (configuration not stated) | inactive
CCOP1(=S)c2c(C)nn(CCC#N)c2N=C(c2ccccc2F)N1C (configuration not stated) | inactive
O=P(Nc1nccs1)(c1ccccc1)c1nc2ccccc2s1 (configuration not stated) | active: 11.2 µM
O=P(Nc1nccs1)(Oc1ccccc1)Oc1ccccc1 | inactive

SMILES | Potency
CS(=O)(=O)c1cc([N+](=O)[O-])c2no[n+]([O-])c2c1 | inactive
O=C(O)COc1ccc([As](=O)(O)O)cc1[N+](=O)[O-] | inactive
NC(=O)Nc1ccc([As](=O)(O)O)cc1 | inactive
N#CCCN(C(=O)COC(=O)C(O)(c1ccccc1)c1ccccc1)c1ccc(F)cc1 | inactive
CCOP1(=S)c2c(C)nn(CCC#N)c2N=C(c2ccc(F)cc2)N1C (configuration not stated) | inactive
CN(C(=O)Cc1ccccc1)[C@@H]1CC[C@]2(CCCO2)C[C@H]1N1CCCC1 | inactive
O=[N+]([O-])c1ccc2c(c1)nnn2O | inactive
CN(C(=O)Cc1ccc(Cl)c(Cl)c1)[C@H]1CC[C@@]2(CCCO2)C[C@@H]1N1CCCC1 | inactive
O=C(OC1CN2CCC1CC2)c1ccc(Cl)cc1 (configuration not stated) | inactive
COc1cc(C(=O)NCC2(N3CCOCC3)CCCCC2)cc(Cl)c1OC(C)C | inactive
O=[As](O)(O)c1cccnc1 | inactive
CS(=O)(=O)c1ccc(Cl)c(NC(=O)COC(=O)C(O)(c2ccccc2)c2ccccc2)c1 | inactive
O=[As](O)(c1cccc(O)c1)c1cccc(O)c1 | inactive
Cc1cccc(OCC(=O)OC2CN3CCC2CC3)c1 (configuration not stated) | inactive
Nc1cccc2c([As](=O)(O)O)cccc12 | inactive
Cc1ccc(NCCc2c([N+](=O)[O-])cc([N+](=O)[O-])cc2[N+](=O)[O-])cc1 | active: 12.6 µM
CCCOP(=S)(Nc1nc(N)cc(=O)[nH]1)OCCC | inactive
COc1cc(C2NCCC3(OCCO3)C2(C)C)cc(OC)c1OC (configuration not stated) | inactive
CCOP(=O)(Nc1cccc2ccccc12)OCC | inactive
Cc1c2c(nc3ccccc13)SC(C(Cl)Cl)C2 (configuration not stated) | inactive
O=C(OC1CN2CCC1CC2)C12CC3CC(CC(C3)C1)C2 (configuration not stated) | inactive
Cc1cc(=O)[nH]c(N[N+](=O)[O-])n1 | inactive
O=P1(N(CCCl)CCCl)Nc2ccccc2N1 | inactive
O=P1(N(CCCl)CCCl)OCCCN1CCCl (configuration not stated) | inactive
COc1ccc2nc(NP(=O)(c3ccccc3)c3ccccc3)sc2c1 | inactive
COc1cc(I)ccc1[As](=O)(O)O | inactive

SMILES | Potency
COc1ccc(N/C(=N/P(=O)(N2CCOCC2)N2CCOCC2)N2CCOCC2)cc1 | inactive
C[As](=O)(O)c1cccc(C(=O)O)c1 | inactive
O=[As](O)(c1ccc(O)cc1)c1ccccc1O | inactive
COc1cc(C(=O)NCC2(N3CCOCC3)CCCCC2)ccc1OCC(C)C | inactive
Cc1ccc(OP(=O)(Nc2ccc([N+](=O)[O-])cn2)Oc2ccc(C)cc2)cc1 | inactive
ClCCN(CCCl)c1ccc(CC2C=CC=C2)cc1 | inactive
Cc1ccc2nc3c(c(C)c2c1)CC(C(Cl)Cl)S3 (configuration not stated) | inactive
O=Cc1ccc(NCCCl)cc1 | inactive
ClCCSc1nnc(-c2cccnc2)o1 | inactive
CC(C)c1ccc(OP(=O)(Nc2ccccn2)Oc2ccccc2F)cc1 (configuration not stated) | inactive
COC(=O)C1(C)COP(=O)(N2CCCCCC2)OC1 (configuration not stated) | inactive
O=C(OC1CN2CCC1CC2)c1cccc2[nH]cnc12 (configuration not stated) | inactive
CCN(CC)C(=S)SC(NC=O)C(Cl)(Cl)Cl (configuration not stated) | inactive
CC(C)NC(=O)NP(=O)(Oc1ccccc1)Oc1ccccc1 | inactive
O=[N+]([O-])c1cc([N+](=O)[O-])c(-c2ccn[nH]2)s1 | active: 10 µM
O=C(O)C(O)c1ccc(N(CCCl)CCCl)cc1 (configuration not stated) | inactive
CCOC(=O)Nc1ccc([As](=O)(O)O)c(O)c1 | inactive
CC1CCNP(=O)(N(CCCl)CCCl)O1 (configuration not stated) | inactive
COP(=O)(OC)N1CC1c1ccccc1 (configuration not stated) | inactive
Cc1cc(SC(NC(=O)c2ccccc2)C(Cl)(Cl)Cl)nc(C(C)C)n1 (configuration not stated) | inactive
CCOC(=O)Nc1cccc([As](=O)(O)O)c1 | inactive
Cc1cc(SC(NC=O)C(Cl)(Cl)Cl)ncn1 (configuration not stated) | inactive
O=P(Nc1ccccn1)(c1cccc2ccccc12)c1cccc2ccccc12 | inactive
O=[N+]([O-])c1ccc(Nc2ccc(Oc3ccc([N+](=O)[O-])cc3[N+](=O)[O-])cc2)c([N+](=O)[O-])c1 | inactive
COP1(=S)c2c(C)nn(CCC#N)c2N=C(c2ccc(F)cc2)N1C (configuration not stated) | inactive
